In the test the target is Glucagon receptor GCGR (Homo sapiens) (UniProt P47871). Kind of test: Activation of human GCGR expressed in human HEK293 cells assessed as luminescence signal incubated for 16 hrs at 37C measured by CRE-driven luciferase reporter assay.

On to `CC[C@H](C)[C@@H]1NC(=O)[C@H](Cc2ccccc2)NC(=O)[C@H](CCC(=O)O)NC(=O)[C@H](CCCCN)NC(=O)[C@H](C)NC(=O)[C@H](C)NC(=O)[C@@H](NC(=O)[C@H](CCC(=O)O)NC(=O)[C@H](CC(=O)O)NC(=O)[C@H](CC(C)C)NC(=O)[C@H](Cc2ccc(O)cc2)NC(=O)[C@H](CCCCN)NC(=O)[C@H](CO)NC(=O)[C@H](Cc2ccc(O)cc2)NC(=O)[C@H](CC(=O)O)NC(=O)[C@H](CO)NC(=O)[C@@H](NC(=O)[C@H](Cc2ccccc2)NC(=O)[C@@H](NC(=O)CNC(=O)[C@H](CCC(N)=O)NC(=O)[C@H](CO)NC(=O)[C@@H](N)Cc2cnc[nH]2)[C@@H](C)O)[C@@H](C)O)CSCC(=O)NCCCC(C(=O)NCCOCCOCCOCCNC(=O)CCCCCCC(=O)O)NC(=O)CSC[C@@H](C(=O)N[C@@H](Cc2c[nH]c3ccccc23)C(=O)N[C@@H](CC(C)C)C(=O)N[C@@H](CC(C)C)C(=O)N[C@@H](CCCNC(=N)N)C(=O)N[C@@H](C)C(N)=O)NC1=O` (stereo partly specified), for which the EC50 (in general, the concentration needed to bring the measured effect to its halfway point) turned out to be 0.46 nM.

The values above are taken from BindingDB's records for doi:10.1021/acs.jmedchem.1c01289 (University of South Florida, 2021).
